Membrane permeability of cyclic peptides

Source: CycPeptMPDB (Li et al. 2023), which took these values from Kelly et al. 2021, doi:10.1021/jacs.0c06115.

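Conditions beyond the assay type are not listed; see the original paper. Other peptides of the study may be missing here. Entries at the database's floor value (log10 P of -10) are not listed.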

PAMPA is the parallel artificial membrane permeability assay, which has no cells and reads passive diffusion. Permeability is given as log10 of P in cm/s; higher (less negative) is more permeable.

| structure (SMILES) | PAMPA (log10 cm/s) |
|---|---|
| CC(=O)N1CCC[C@@H]1C(=O)N(C)[C@H](CC(C)C)C(=O)N[C@@H]1C(=O)N[C@H](CC(C)C)C(=O)N(C)[C@H](CC(C)C)C(=O)N(C)[C@@H](CC(C)C)C(=O)N(C)[C@H](C)C(=O)N[C@@H](CC(C)C)C(=O)N2CCC[C@H]2C(=O)O[C@@H]1C | -5.48 |
| CC(=O)N1CCC[C@H]1C(=O)N(C)[C@@H](CC(C)C)C(=O)N[C@@H]1C(=O)N(C)[C@H](CC(C)C)C(=O)N(C)[C@@H](CC(C)C)C(=O)N(C)[C@@H](CC(C)C)C(=O)N[C@@H](C)C(=O)N[C@H](CC(C)C)C(=O)N2CCC[C@H]2C(=O)O[C@@H]1C | -5.01 |
| CC(=O)N1CCC[C@@H]1C(=O)N(C)[C@@H](CC(C)C)C(=O)N[C@@H]1C(=O)N[C@@H](CC(C)C)C(=O)N[C@H](CC(C)C)C(=O)N(C)[C@H](CC(C)C)C(=O)N(C)[C@H](C)C(=O)N[C@@H](CC(C)C)C(=O)N2CCC[C@H]2C(=O)O[C@@H]1C | -5.71 |
| CC(=O)N1CCC[C@H]1C(=O)N(C)[C@H](CC(C)C)C(=O)N[C@@H]1C(=O)N(C)[C@@H](CC(C)C)C(=O)N[C@@H](CC(C)C)C(=O)N(C)[C@@H](CC(C)C)C(=O)N(C)[C@@H](C)C(=O)N[C@@H](CC(C)C)C(=O)N2CCC[C@H]2C(=O)O[C@@H]1C | -5.25 |
| CC(=O)N1CCC[C@H]1C(=O)N(C)[C@H](CC(C)C)C(=O)N[C@@H]1C(=O)N(C)[C@H](CC(C)C)C(=O)N(C)[C@H](CC(C)C)C(=O)N(C)[C@@H](CC(C)C)C(=O)N(C)[C@@H](C)C(=O)N[C@H](CC(C)C)C(=O)N2CCC[C@H]2C(=O)O[C@@H]1C | -5.63 |
| CC(=O)N1CCC[C@H]1C(=O)N(C)[C@@H](CC(C)C)C(=O)N[C@@H]1C(=O)N[C@H](CC(C)C)C(=O)N(C)[C@H](CC(C)C)C(=O)N[C@H](CC(C)C)C(=O)N[C@@H](C)C(=O)N[C@H](CC(C)C)C(=O)N2CCC[C@H]2C(=O)O[C@@H]1C | -5.83 |
| CC(=O)N1CCC[C@@H]1C(=O)N(C)[C@@H](CC(C)C)C(=O)N[C@@H]1C(=O)N[C@H](CC(C)C)C(=O)N(C)[C@@H](CC(C)C)C(=O)N(C)[C@@H](CC(C)C)C(=O)N[C@@H](C)C(=O)N[C@@H](CC(C)C)C(=O)N2CCC[C@@H]2C(=O)O[C@@H]1C | -5.26 |
| CC(=O)N1CCC[C@H]1C(=O)N(C)[C@@H](CC(C)C)C(=O)N[C@@H]1C(=O)N(C)[C@H](CC(C)C)C(=O)N[C@H](CC(C)C)C(=O)N[C@@H](CC(C)C)C(=O)N(C)[C@@H](C)C(=O)N[C@@H](CC(C)C)C(=O)N2CCC[C@H]2C(=O)O[C@@H]1C | -6.45 |
| CC(=O)N1CCC[C@@H]1C(=O)N(C)[C@H](CC(C)C)C(=O)N[C@@H]1C(=O)N(C)[C@H](CC(C)C)C(=O)N(C)[C@H](CC(C)C)C(=O)N(C)[C@@H](CC(C)C)C(=O)N(C)[C@@H](C)C(=O)N[C@@H](CC(C)C)C(=O)N2CCC[C@H]2C(=O)O[C@@H]1C | -5.72 |
| CC(=O)N1CCC[C@@H]1C(=O)N(C)[C@@H](CC(C)C)C(=O)N[C@@H]1C(=O)N(C)[C@H](CC(C)C)C(=O)N(C)[C@H](CC(C)C)C(=O)N(C)[C@H](CC(C)C)C(=O)N(C)[C@H](C)C(=O)N[C@@H](CC(C)C)C(=O)N2CCC[C@H]2C(=O)O[C@@H]1C | -5.09 |
| CC(=O)N1CCC[C@@H]1C(=O)N(C)[C@@H](CC(C)C)C(=O)N[C@@H]1C(=O)N[C@H](CC(C)C)C(=O)N[C@H](CC(C)C)C(=O)N[C@@H](CC(C)C)C(=O)N[C@@H](C)C(=O)N[C@H](CC(C)C)C(=O)N2CCC[C@H]2C(=O)O[C@@H]1C | -6.85 |
| CC(=O)N1CCC[C@@H]1C(=O)N(C)[C@H](CC(C)C)C(=O)N[C@@H]1C(=O)N(C)[C@@H](CC(C)C)C(=O)N[C@H](CC(C)C)C(=O)N[C@H](CC(C)C)C(=O)N(C)[C@H](C)C(=O)N[C@H](CC(C)C)C(=O)N2CCC[C@@H]2C(=O)O[C@@H]1C | -6.17 |